Arrestin-AP2 inh: human beta-arrestin and AP2 interaction inhibition; inhibition, % at 10 µM; FITC-arrestin peptide / GST-AP2 beads, flow cytometry; AP2 beta2 appendage carries R879A mutation; 0.31% of 340,000 active;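 active = inhibition above a set limit, near 3 SD of compounds lacking own fluorescence, cut at about 54% in these data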;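 also: plate controls were DMSO wells for no effect and 5 µM unlabelled arrestin peptide for full effect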
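Assay system: GST-AP2 R879A bound to glutathione beads, E. coli-expressed; Medium: PBS with 0.05% Tween 20 and 0.1% BSA; Also added: fluorescein-tagged arrestin peptide at 50 nM final; Timing: 12 min plus 1 h, RT; Measured by: flow cytometry, FL1 (488/535 nm); Evaluation: percent drop in bead-associated FITC signal.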
Yeast UUG start: alters start codon recognition fidelity in yeast | S. cerevisiae UUG-firefly luciferase reporter, luminescence/redox ratio | activity score, % at 18.7 µM | 350,000 compounds, 0.13% hits | AID 602363;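 active = replicate mean at a twofold rise or more, about +100% in these data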;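 note: firefly luciferase made from a UUG start codon reports start codon fidelity; reporter light over untreated wells divided by growth signal over untreated wells; some hits fall short of that in this replicate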
Pemphigus Ab inh: inhibitors of pemphigus antibody binding to human desmoglein-3; binding (percent of control), % at 10 µM; AID 588358; P32926; 0.48% of 310,000 active; DSG3-coupled beads, scFv-anti-DSG3-GFP binding, flow cytometry; active compounds read low;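 active = binding more than 3 SD below its plate's average and above zero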;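 also: hits lower antibody fragment binding to DSG3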
Tb MetRS inh: blocks T. brucei methionyl-tRNA synthetase activity; purified T. brucei MetRS, ATP depletion, Kinase-Glo luminescence; inhibition, % at 11.9 µM; 0.4% of 360,000 active;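 active = inhibition above a per-plate cutoff of the control wells' mean inhibition plus 3 SD, cut at about 5.5% in these data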;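 also: 0% = DMSO wells median and 100% = median of wells with control inhibitor compound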
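Dosing: 11.9 µM single point; system: parasite MetRS enzyme; technique: luminescence of leftover ATP; times: 15 min enzyme-compound preincubation, 2 h reaction, 10 min detection, 25 °C; replicates: each compound tested once; read-out basis: percent inhibition relative to median high and low control wells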
Rce1 inhib: blocks yeast Ras-converting enzyme; Q03530; yeast membranes, quenched prenylated peptide cleavage fluorescence; calls only; 0.27% of 290,000 active; AID 2563;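 active = fall in fluorescence gain of 50% or more versus controls, with final raw signal at or below 3038400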;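 also: plate controls were neutral control wells for no effect and wells lacking membranes for full effect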
* hit, by the source's call; i = inactive; / = not tested or not shown; + = active, no number. Shown are actives, neighbours in structure and some others; about 1.2% of the full set was active somewhere.

Key to letters – A = Arrestin-AP2 inh; B = Yeast UUG start; C = Pemphigus Ab inh; D = Tb MetRS inh; E = Rce1 inhib
1: Cc1ccc(NC(=O)c2ccc(OC(=O)c3ccco3)cc2)cc1
  A = 23.1	B = -13.6	C = 87.1	D = -0.9	E = i
2: CC1(C)CC2CC(C)(CN2S(=O)(=O)c2cccc(C(N)=O)c2)C1 (stereo not given)
  A = 2.0	B = -2.1	C = 99.0	D = -0.2	E = /
3: CC1(C)CC2CC(C)(CN2S(=O)(=O)c2ccc(N)cc2)C1 (stereo not given)
  A = 0.4	B = -13.1	C = 104.4	D = -1.1	E = +
4: Cc1ccc(S(=O)(=O)NCC[C@@H]2CC[C@H](NC(=O)NC(C)C)[C@@H](CO)O2)cc1
  A = /	B = 7.5	C = /	D = /	E = /
5: CCOC(=O)c1[nH]c2ccccc2c1NC(=O)C(CC)CC
  A = 5.9	B = 1.6	C = -14.1*	D = 0.1	E = i
6: CCOC(=O)c1[nH]c2ccccc2c1NC(C)=O
  A = 17.3	B = -2.2	C = 99.5	D = -1.3	E = i
7: Cc1ccc(Sc2ccc(NC(=O)c3ccc(S(C)(=O)=O)cc3Cl)cc2)cc1
  A = 2.2	B = -32.2	C = -16.3*	D = 0.4	E = i
8: C[C@@H]1CCCCO[C@@H](CN(C)C(=O)CCCN(C)C)[C@@H](C)CN([C@@H](C)CO)C(=O)c2cc(NC(=O)C3CCCCC3)ccc2O1
  A = /	B = 51.4	C = /	D = /	E = /
9: COC(=O)c1ccc(C(=O)OC)c(NC(=O)COC(=O)c2ccccc2OC)c1
  A = 10.2	B = /	C = -8.0*	D = 0.2	E = i
10: CC(=O)C(C)Oc1ccc2c3c(c(=O)oc2c1)CCCC3 (stereo not given)
  A = 15.3	B = 3.5	C = 103.4	D = 0.1	E = +
11: CC(=O)C(C)Oc1ccc2c3c(c(=O)oc2c1)CCCCC3 (stereo not given)
  A = 9.6	B = -5.7	C = 103.3	D = -0.2	E = i
12: COc1cccc(N=Cc2ccc(O)cc2O)c1
  A = 3.2	B = 19.6	C = 84.9*	D = -0.3	E = i
13: Oc1ccc(C=Nc2ccc3ncccc3c2)c(O)c1
  A = /	B = /	C = /	D = /	E = i
14: COc1cccc(-c2cn(CC[C@H]3CC[C@H](NC(=O)CN(C)C)[C@@H](CO)O3)nn2)c1
  A = /	B = 0.6	C = /	D = /	E = /
15: O=C(COc1ccc2ccc(=O)oc2c1)NCCc1c[nH]c2ccc(F)cc12
  A = 14.7	B = -22.7	C = 94.8	D = -0.1	E = +

The listing continues:
Key to letters – A = Arrestin-AP2 inh; B = Yeast UUG start; C = Pemphigus Ab inh; D = Tb MetRS inh; E = Rce1 inhib
16: CCCC[C@@H]1CNC(=S)N1CCc1cccc2ccccc12
  A = -4.0	B = -22.8	C = 101.3	D = -0.3	E = +
17: CCCCN1C(=S)NC[C@@H]1Cc1cccc2ccccc12
  A = 2.0	B = -31.9	C = 101.2	D = -0.1	E = i
18: C/C=C/c1ccc([C@@H]2[C@H](CN(C)S(=O)(=O)c3ccccc3)N[C@@H]2CO)cc1
  A = /	B = -14.1	C = /	D = /	E = /
19: O=C(C[C@H]1CC[C@@H](NC(=O)Nc2ccc3c(c2)OCO3)[C@H](CO)O1)NCc1ccccc1
  A = /	B = -0.8	C = /	D = /	E = /
20: Nc1c(C(=O)Nc2cccc(C(=O)O)c2)sc2nc3c(cc12)CCCC3
  A = -9.4	B = -82.4	C = 106.3	D = 0.0	E = +
21: C/C(=N\OC(=O)c1cccc(C(F)(F)F)c1)c1sc(-c2ccccc2)nc1C
  A = 14.2	B = -4.7	C = 78.5*	D = -0.2	E = i
22: C/C(=N\OC(=O)c1cccc(C)c1)c1sc(-c2ccccc2)nc1C
  A = 11.8	B = -9.2	C = -28.1*	D = -1.9	E = i
23: C/C(=N\OC(=O)c1ccc(F)cc1)c1sc(-c2ccccc2)nc1C
  A = 13.1	B = -17.4	C = /	D = -0.6	E = i
24: COc1ccc(C(=O)NCc2ccc3c(c2)cc(C)n3C)cc1OC
  A = 35.4	B = -6.4	C = 108.5	D = 1.8	E = i
25: Cc1ccccc1NC(=S)NCc1ccc2c(c1)cc(C)n2C
  A = 0.5	B = -34.9	C = 66.0*	D = 0.3	E = i
26: COc1cccc(C(=O)NCc2ccc3c(c2)cc(C)n3C)c1
  A = -4.8	B = /	C = 82.2*	D = 0.2	E = i
27: CC1=CC2=NC(=O)CC(C)(C(=O)N(CC(=O)NC3CCCC3)Cc3ccc(Cl)cc3)N2C=C1 (stereo not given)
  A = -7.4	B = 1.9	C = 100.9	D = -0.2	E = i
28: CC1=CC=CN2C1=NC(=O)CC2(C)C(=O)N(CC(=O)NC1CCCC1)Cc1ccccc1 (stereo not given)
  A = 24.3	B = -19.6	C = 96.1	D = -0.5	E = i
29: CC1(C(=O)N(CC(=O)NC2CCCC2)Cc2ccccc2)CC(=O)N=C2C=CC=CN21 (stereo not given)
  A = -2.3	B = 5.0	C = 106.7	D = -0.4	E = +
30: CC1(C(=O)N(CC(=O)NC2CCCC2)Cc2ccco2)CC(=O)N=C2C=CC=CN21 (stereo not given)
  A = 0.7	B = 2.5	C = 101.5	D = 0.4	E = +

Further entries.
Key to letters – A = Arrestin-AP2 inh; B = Yeast UUG start; C = Pemphigus Ab inh; D = Tb MetRS inh; E = Rce1 inhib
31: CCOc1ccc(NC(=O)CSc2nnc(C)n2CC)cc1
  A = 16.4	B = -18.1	C = 78.4*	D = -0.9	E = i
32: O=C(COc1nncc2ccccc12)Nc1ccc(F)c(F)c1
  A = 6.0	B = /	C = 106.8	D = 0.8	E = /
33: CC(C)c1ccc(NC(=O)COc2nncc3ccccc23)cc1
  A = -0.3	B = /	C = 92.6	D = -1.4	E = +
34: Cc1nc2ccccc2nc1OCC(=O)Nc1ccc2ccccc2c1
  A = 0.8	B = -4.4	C = 65.2*	D = 0.3	E = i
35: C[C@@H]1CN([C@@H](C)CO)C(=O)c2cc(C#CC3CCCC3)cnc2O[C@H]1CN(C)S(C)(=O)=O
  A = /	B = 9.5	C = /	D = /	E = /
36: COc1ccc(C(=O)Nc2cccnc2Sc2ccc(Cl)cc2)cc1
  A = -3.7	B = -8.7	C = 80.4*	D = 0.1	E = i
37: COc1ccc(/C=N/NC(=O)c2nn(-c3ccc(Cl)cc3)c(=O)c3c(N)scc23)cc1
  A = 13.1	B = -6.5	C = 81.7*	D = -0.6	E = i
38: COc1ccc(/C=N/NC(=O)c2nn(-c3ccccc3)c(=O)c3c(N)scc23)cc1
  A = -1.2	B = -12.6	C = /	D = -1.0	E = i
39: CCCCCCCCOC(=O)CCc1c(C)[nH]c(=S)[nH]c1=O
  A = 1.0	B = -23.7	C = 11.5*	D = -2.0	E = i
40: COc1ccc(Sc2ccccc2CN(C)C)cc1OC
  A = 2.0	B = -11.9	C = 104.6	D = -0.6	E = i
41: CNCc1ccccc1Sc1ccc(O)c(O)c1
  A = 18.6	B = /	C = 56.9*	D = -0.6	E = i
42: CCC(=O)N1CCc2cc(S(=O)(=O)N(C)c3ccc(Br)cc3)ccc21
  A = 12.8	B = -1.1	C = 72.8*	D = -0.9	E = i
43: C=CCn1c(=O)c2c(nc(-c3ccc(S(=O)(=O)O)cc3)n2C)n(C)c1=O
  A = 3.9	B = -7.2	C = 114.8	D = -0.4	E = +
44: C=CCn1c(=O)c2c(nc3n2CCN3c2cccc(Cl)c2C)n(C)c1=O
  A = 20.7	B = -2.5	C = 96.6	D = -0.5	E = i
45: O=C(C[C@@H]1CC[C@H](NC(=O)c2ccccc2)[C@H](CO)O1)NCc1ccc(Oc2ccccc2)cc1
  A = /	B = 8.6	C = /	D = /	E = /

Next part:
Key to letters – A = Arrestin-AP2 inh; B = Yeast UUG start; C = Pemphigus Ab inh; D = Tb MetRS inh; E = Rce1 inhib
46: Cc1[nH]c2ccccc2c1/C=N/NC(=O)c1cccc(F)c1
  A = 21.2	B = /	C = 93.3	D = -0.8	E = i
47: COc1ccc(/C=N/NC(=O)c2cccc([N+](=O)[O-])c2)c2ccccc12
  A = -28.8	B = 22.7	C = 96.0	D = -1.2	E = i
48: Cc1[nH]c2ccccc2c1/C=N/NC(=O)c1cccc([N+](=O)[O-])c1
  A = 5.9	B = /	C = 60.4*	D = 1.1	E = i
49: Cn1cc(/C=N/NC(=O)c2cccc([N+](=O)[O-])c2)c2ccccc21
  A = -12.8	B = -19.0	C = 24.5*	D = -0.7	E = i
50: ClC(Cl)(c1nnnn1-c1ccccc1)c1nnnn1-c1ccccc1
  A = -21.8	B = -39.8	C = 77.2*	D = -0.4	E = /
51: O=C1CN(c2ccc(Cl)cc2)C(=O)CN1NC(=S)Nc1ccc(Cl)cc1
  A = 22.3	B = -19.6	C = 60.6*	D = -0.4	E = i
52: CCOC(=O)c1cn(-c2ccc([N+](=O)[O-])cc2)c2cc(Cl)c([N+](=O)[O-])cc2c1=O
  A = 9.2	B = /	C = 61.8*	D = -1.3	E = i

3 compounds from above, ordered by the value under Arrestin-AP2 inh, high to low.
Key to letters – A = Arrestin-AP2 inh; B = Yeast UUG start; C = Pemphigus Ab inh; D = Tb MetRS inh; E = Rce1 inhib
25: Cc1ccccc1NC(=S)NCc1ccc2c(c1)cc(C)n2C
  A = 0.5	B = -34.9	C = 66.0*	D = 0.3	E = i
38: COc1ccc(/C=N/NC(=O)c2nn(-c3ccccc3)c(=O)c3c(N)scc23)cc1
  A = -1.2	B = -12.6	C = /	D = -1.0	E = i
20: Nc1c(C(=O)Nc2cccc(C(=O)O)c2)sc2nc3c(cc12)CCCC3
  A = -9.4	B = -82.4	C = 106.3	D = 0.0	E = +

Compounds shown so far containing a furan ring, fused or not, in the order listed:
Key to letters – A = Arrestin-AP2 inh; B = Yeast UUG start; C = Pemphigus Ab inh; D = Tb MetRS inh; E = Rce1 inhib
1: Cc1ccc(NC(=O)c2ccc(OC(=O)c3ccco3)cc2)cc1
  A = 23.1	B = -13.6	C = 87.1	D = -0.9	E = i
30: CC1(C(=O)N(CC(=O)NC2CCCC2)Cc2ccco2)CC(=O)N=C2C=CC=CN21 (stereo not given)
  A = 0.7	B = 2.5	C = 101.5	D = 0.4	E = +

Compound activity (PubChem BioAssay)
